This note sets out measurements from patent publication US20210347827A1.

The test concerns the target immunoglobulin G (IgG) obtained from human serum (human). Kind of test: IgG (2 mg/mL) bound to beads carrying immobilized Protein A, washed, read by SDS-PAGE.

The substance “Protein A polymer (Protein A linear multimer polymer made by the Ubstac reaction, immobilized on latex beads) (from UniProt P0CG48 1-76)” had an increase of binding activity against the protein A monomer beads of over 15%.
